# According to PubChem BioAssay AID602141 (Sanford-Burnham Center for Chemical Genomics, 2011):
# This is a selection; strong and weak results do not stand in their true shares. Calls of active or inactive are those of the source.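 How the source made its calls: active means corrected activity change at or below -50% at 5 µM; inactive means the rest.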
# Experiment: KKLEB cell viability reduction – uHTS, fluorescence assay plates, cytotoxicity control for CF NF-kB inhibitor project, primary screen (AID 602141)
# Details: KKLEB CF airway cells viability, ATPlite luminescence, overnight; at 5 µM; hits give low values; cells stimulated with P. aeruginosa culture filtrate
row,Compound,activity change (cytotoxicity)
1,O=C(O)CNc1ccc([As](=O)(O)O)cc1,inactive: -2.9%
2,CC(C)(C)C(=O)NC(Sc1ccncn1)C(Cl)(Cl)Cl (centres undefined),inactive: 4.5%
3,O=[N+]([O-])c1ncn(CCn2ncnc2[N+](=O)[O-])n1,inactive: 1.9%
4,O=C(Nc1cc([As](=O)(O)O)ccc1O)c1ccccc1,inactive: 7.2%
5,O=P1(N(CCCl)CCCl)OCCCS1 (centres undefined),inactive: 8.8%
6,CN(C)C(=O)OCCc1n(C)cc[n+]1C,inactive: -5.5%
7,CC(C)=N/N=C(\N)N[N+](=O)[O-],inactive: 7.7%
8,CC(C)c1nc(Nc2ccccc2)n(P(=O)(N(C)C)N(C)C)n1,inactive: -4.9%
9,c1cc(-c2nn[nH]n2)ccc1-c1nn[nH]n1,inactive: 15.9%
10,CC1CCN(C(=O)Oc2c(Cl)cc(Cl)c3cccnc23)CC1,inactive: 3.6%
11,C[N+]1=C2C=CC=CC=C2SC12C([N+](=O)[O-])=CC([N+](=O)[O-])=C[C-]2[N+](=O)[O-] (centres undefined),inactive: -6.9%
12,Nc1ccc([As](=O)(O)c2ccc(N)cc2)cc1,inactive: -8.2%
13,CCN(/C(=N/P(=O)(N1CCOCC1)N1CCOCC1)N1CCOCC1)c1ccc(OC)cc1,inactive: -0.8%
14,CC(=O)N1C2C3N(C(C)=O)C1C1N(C(C)=O)C(C(N1C(C)=O)N3C(C)=O)N2C(C)=O,inactive: -14.9%
15,O=[N+]([O-])c1cccc2n[nH]nc12,inactive: 5.4%
16,O=[N+]([O-])c1cc([N+](=O)[O-])c(CCNc2ccccc2)c([N+](=O)[O-])c1,inactive: -7.7%
17,CCc1nc2c(n1)c1c(non1O)c1c2no[n+]1[O-],inactive: -2.9%
18,Cc1ccc(NP(=O)(Oc2ccccc2)Oc2ccccc2)nc1,inactive: 7.3%
19,COc1ccc(C2=NCC(CBr)S2)cc1 (centres undefined),inactive: -7.1%
20,CCC(C)N(CC(C)C)C(=S)SC(NC(C)=O)C(Cl)(Cl)Cl (centres undefined),inactive: 5.7%
21,CCOC(=O)c1ccc(NC(=O)C(C)(CCl)SC)cc1 (centres undefined),inactive: -7.9%
22,CSc1ccc(Nc2c([N+](=O)[O-])cc([N+](=O)[O-])cc2[N+](=O)[O-])cc1,inactive: -6.3%
23,O=C(OC1CN2CCC1CC2)c1cccc([N+](=O)[O-])c1 (centres undefined),inactive: 9.5%
24,O=C(Nc1ccncc1[N+](=O)[O-])c1ccc([N+](=O)[O-])cc1[N+](=O)[O-],inactive: -5.9%
25,O=C(COc1ccccc1)OC1CN2CCC1CC2 (centres undefined),inactive: 8.7%
26,O=C(O)C(=O)c1ccc(N(CCCl)CCCl)cc1,inactive: 12.3%
27,COC(=O)C1(C)COP(=O)(N2CCCC2)OC1 (centres undefined),inactive: 8.5%

row,Compound,activity change (cytotoxicity)
1,COP1(=S)c2c(C)nn(CCC#N)c2N=C(c2ccc(F)cc2)N1C (centres undefined),inactive: -1.2%
2,O=[N+]([O-])c1ccc(Nc2ccc(Oc3ccc([N+](=O)[O-])cc3[N+](=O)[O-])cc2)c([N+](=O)[O-])c1,inactive: -22.3%
3,Cc1cc(SC(NC=O)C(Cl)(Cl)Cl)ncn1 (centres undefined),inactive: -3%
4,O=P(Nc1ccccn1)(c1cccc2ccccc12)c1cccc2ccccc12,inactive: 21.1%
5,CCOC(=O)Nc1cccc([As](=O)(O)O)c1,inactive: 8.2%
6,Cc1cc(SC(NC(=O)c2ccccc2)C(Cl)(Cl)Cl)nc(C(C)C)n1 (centres undefined),inactive: -6.7%
7,CCCCOc1ccc(C(=O)NCC2(N3CCCCC3)CCCCC2)cc1OC,inactive: 12.8%
8,COP(=O)(OC)N1CC1c1ccccc1 (centres undefined),inactive: -6.9%
9,CC1CCNP(=O)(N(CCCl)CCCl)O1 (centres undefined),inactive: 5.3%
10,O=C(O)C(O)c1ccc(N(CCCl)CCCl)cc1 (centres undefined),inactive: -7.1%
11,CCOC(=O)Nc1ccc([As](=O)(O)O)c(O)c1,inactive: -8.8%
12,O=[N+]([O-])c1cc([N+](=O)[O-])c(-c2ccn[nH]2)s1,inactive: -0.9%
13,CCN(CC)C(=S)SC(NC=O)C(Cl)(Cl)Cl (centres undefined),inactive: 6.2%
14,O=C(OC1CN2CCC1CC2)c1cccc2[nH]cnc12 (centres undefined),inactive: -1.5%
15,CC(C)NC(=O)NP(=O)(Oc1ccccc1)Oc1ccccc1,inactive: -1.3%
16,CC(C)c1ccc(OP(=O)(Nc2ccccn2)Oc2ccccc2F)cc1 (centres undefined),inactive: 1.1%
17,COC(=O)C1(C)COP(=O)(N2CCCCCC2)OC1 (centres undefined),inactive: -0.4%
18,ClCCSc1nnc(-c2cccnc2)o1,inactive: 6.6%
19,Cc1ccc2nc3c(c(C)c2c1)CC(C(Cl)Cl)S3 (centres undefined),inactive: -4.2%
20,Cc1ccc(OP(=O)(Nc2ccc([N+](=O)[O-])cn2)Oc2ccc(C)cc2)cc1,inactive: -5.7%
21,COc1cc(C(=O)NCC2(N3CCOCC3)CCCCC2)ccc1OCC(C)C,inactive: -0.3%
22,O=[N+]([O-])c1ccc(-c2cc([N+](=O)[O-])c(O)c([N+](=O)[O-])c2)cc1,inactive: -5.2%
23,C[As](=O)(O)c1cccc(C(=O)O)c1,inactive: 0.3%
24,O=[As](O)(c1ccc(O)cc1)c1ccccc1O,inactive: 14.5%
25,COc1ccc(N/C(=N/P(=O)(N2CCOCC2)N2CCOCC2)N2CCOCC2)cc1,inactive: 13.2%
26,O=[N+]([O-])c1cc(Oc2ccc([N+](=O)[O-])cc2C(F)(F)F)cc([N+](=O)[O-])c1,inactive: 15.8%
27,COc1cc(I)ccc1[As](=O)(O)O,inactive: -3.4%
